Data published in ChEMBL document CHEMBL1649335, “Discovery of {1-[4-(2-{hexahydropyrrolo[3,4-c]pyrrol-2(1H)-yl}-1H-benzimidazol-1-yl)piperidin-1-yl]cyclooctyl}methanol, systemically potent novel non-peptide agonist of nociceptin/orphanin FQ receptor as analgesic for the treatment of neuropathic pain: design, synthesis, and structure-activity …” (Bioorg Med Chem, 2010).

Experiment: Ratio of drug level in plasma to brain in Sprague-Dawley rat at 10 mg/kg, sc
Settings: in vivo, strain Sprague-Dawley

| SMILES | Ratio |
| --- | --- |
| CN1CCN(c2nc3ccccc3n2C2CCN(C3(CO)CCCCCCC3)CC2)CC1 | 0.58 |
| OCC1(N2CCC(n3c(N4CC5CNCC5C4)nc4ccccc43)CC2)CCCCCCC1 (configuration not stated) | 3.95 |
